Drawing on patent publication US10172863B2, “Purine derivatives useful as HSP90 inhibitors” (Sloan-Kettering Institute for Cancer Research, priority 2009, dated 2019), this text covers EC50 for 26 compounds.

One test concerns JNPL3 brain Hsp90.
Details: not given
As to `CC(C)NCCCn1c(Sc2cc3c(cc2I)OCO3)nc2c(N)ncnc21` [PU-H71, reference compound], the EC50 (commonly the concentration giving half of the maximal effect) is 30.8 to 54 nM.

The test is the same for the next values; noted with them: read-out: EC50; binding to JNPL3 brain Hsp90; JNPL3 brain cell lysate.
As to `CC(C)NCCCn1c(Sc2cc3c(cc2-c2cnoc2)OCO3)nc2c(N)ncnc21` [Compound 4C-10, 9-(3-(isopropylamino)propyl)-8-(6-(isoxazol-4-yl)benzo[d][1,3]dioxol-5-ylthio)-9H-purin-6-amine], the EC50 is greater than 300 nM.

Take `CC(C)NCCCn1c(Cc2cc3c(cc2C#N)OCO3)nc2c(N)nc(F)nc21` [Compound 4E-1, 6-((6-amino-2-fluoro-9-(3-(isopropylamino)propyl)-9H-purin-8-yl)methyl)benzo[d][1,3]dioxole-5-carbonitrile]: the EC50 amounted to 219 nM.

For `CC(C)NCCCn1c(Sc2cc3c(cc2-c2ccc(C(C)(C)C)cc2)OCO3)nc2c(N)ncnc21` [Compound 4A-2, 8-(6-(4-tert-butylphenyl)benzo[d][1,3]dioxol-5-ylthio)-9-(3-(isopropylamino)propyl)-9H-purin-6-amine], the EC50 was found to be 2670 nM.

On to `CC(C)NCCCn1c(Sc2cc3c(cc2-c2cc[nH]n2)OCO3)nc2c(N)ncnc21` [Compound 4G-6, 8-(6-(1H-pyrazol-3-yl)benzo[d][1,3]dioxol-5-ylthio)-9-(3-(isopropylamino)propyl)-9H-purin-6-amine], for which the EC50 was 4 nM.

Take `CC(C)NCCCn1c(Sc2cc3c(cc2-c2ccc[nH]2)OCO3)nc2c(N)ncnc21` [Compound 4H-1, 8-(6-(1H-pyrrol-2-yl)benzo[d][1,3]dioxol-5-ylthio)-9-(3-(isopropylamino)propyl)-9H-purin-6-amine]: the concentration for a half-maximal effect (EC50) stood at 309 nM.

For the compound `CC(C)NCCCn1c(Sc2cc3c(cc2-c2cc(C(F)(F)F)cc(C(F)(F)F)c2)OCO3)nc2c(N)ncnc21` [Compound 4A-3, 8-(6-(3,5-bis(trifluoromethyl)phenyl)benzo[d][1,3]dioxol-5-ylthio)-9-(3-(isopropylamino)propyl)-9H-purin-6-amine], the EC50 was greater than 100000 nM.

For the compound `Cc1ccc(-c2cc3c(cc2Sc2nc4c(N)ncnc4n2CCCNC(C)C)OCO3)o1` [Compound 4C-8, 9-(3-(isopropylamino)propyl)-8-(6-(5-methylfuran-2-yl)benzo[d][1,3]dioxol-5-ylthio)-9H-purin-6-amine], the EC50 was 23 nM.

For `CC(C)NCCCn1c(Sc2cc3c(cc2-c2cn[nH]c2)OCO3)nc2c(N)ncnc21` [Compound 4G-1, 8-(6-(1H-pyrazol-4-yl)benzo[d][1,3]dioxol-5-ylthio)-9-(3-(isopropylamino)propyl)-9H-purin-6-amine], the EC50 worked out at 374 nM.

`CC(C)NCCCn1c(Sc2cc3c(cc2C#Cc2ccccc2)OCO3)nc2c(N)ncnc21` [Compound 4B-3, 9-(3-(isopropylamino)propyl)-8-(6-(phenylethynyl)benzo[d][1,3]dioxol-5-ylthio)-9H-purin-6-amine]: the half-maximal effective concentration (EC50) turned out to be 731 nM.

For the compound `C#Cc1cc2c(cc1Sc1nc3c(N)ncnc3n1CCCNC(C)C)OCO2` [Compound 4B-1, 8-(6-ethynylbenzo[d][1,3]dioxol-5-ylthio)-9-(3-(isopropylamino)propyl)-9H-purin-6-amine], the EC50 was found to be 19.1 nM.

Turning to `COc1ccc(-c2cc3c(cc2Sc2nc4c(N)ncnc4n2CCCNC(C)C)OCO3)cc1` [Compound 4A-6, 9-(3-(isopropylamino)propyl)-8-(6-(4-methoxyphenyl)benzo[d][1,3]dioxol-5-ylthio)-9H-purin-6-amine], the EC50 is 438 nM.

Consider `CC(C)NCCCn1c(Sc2cc3c(cc2C#CC(C)(C)C)OCO3)nc2c(N)ncnc21` [Compound 4B-2, 8-(6-(3,3-dimethylbut-1-ynyl)benzo[d][1,3]dioxol-5-ylthio)-9-(3-(isopropylamino)propyl)-9H-purin-6-amine], for which the EC50 stood at 403 nM.

For `CC(C)NCCCn1c(Sc2cc3c(cc2-c2cccs2)OCO3)nc2c(N)ncnc21` [Compound 4D-1, 9-(3-(isopropylamino)propyl)-8-(6-(thiophen-2-yl)benzo[d][1,3]dioxol-5-ylthio)-9H-purin-6-amine], the EC50 amounted to 43 nM.

As for `CC(C)NCCCn1c(Sc2cc3c(cc2I)CCO3)nc2c(N)ncnc21` [Compound 1B-2, 8-((5-iodo-2,3-dihydrobenzofuran-6-yl)thio)-9-(3-(isopropylamino)propyl)-9H-purin-6-amine], the EC50 fell in the range of 8 to 14 nM.

`CC(C)NCCCn1c(Sc2cc3c(cc2-c2ccc(C=O)o2)OCO3)nc2c(N)ncnc21` [Compound 4C-6, 5-(6-(6-amino-9-(3-(isopropylamino)propyl)-9H-purin-8-ylthio)benzo[d][1,3]dioxol-5-yl)furan-2-carbaldehyde]: the concentration for a half-maximal effect (EC50) is 56 nM.

Consider `CC(C)NCCCn1c(Sc2cc3c(cc2-c2ccco2)OCO3)nc2c(N)ncnc21` [Compound 4C-1, 8-(6-(furan-2-yl)benzo[d][1,3]dioxol-5-ylthio)-9-(3-(isopropylamino)propyl)-9H-purin-6-amine], for which the EC50 stood at 11 nM.

For `CC(C)NCCCn1c(Sc2cc3c(cc2-c2ccoc2)OCO3)nc2c(N)ncnc21` [Compound 4C-2, 8-(6-(furan-3-yl)benzo[d][1,3]dioxol-5-ylthio)-9-(3-(isopropylamino)propyl)-9H-purin-6-amine], the EC50 was found to be 48 nM.

On to `NCCCCCCNCCCn1c(Sc2cc3c(cc2-c2cc(C(F)(F)F)cc(C(F)(F)F)c2)OCO3)nc2c(N)ncnc21` [Compound 4A-4, N1-(3-(6-amino-8-(6-(3,5-bis(trifluoromethyl)phenyl)benzo[d][1,3]dioxol-5-ylthio)-9H-purin-9-yl)propyl)hexane-1,6-diamine], for which the EC50 came to 8290 nM.

As for `CC(C)NCCCn1c(Sc2cc3c(cc2-c2ccnn2C)OCO3)nc2c(N)ncnc21` [Compound 4G-4, 9-(3-(isopropylamino)propyl)-8-(6-(1-methyl-1H-pyrazol-5-yl)benzo[d][1,3]dioxol-5-ylthio)-9H-purin-6-amine], the EC50 was greater than 300 nM.

Turning to `CC(C)NCCCn1c(Sc2cc3c(cc2-c2ccncc2)OCO3)nc2c(N)ncnc21` [Compound 4F-1, 9-(3-(isopropylamino)propyl)-8-(6-(pyridin-4-yl)benzo[d][1,3]dioxol-5-ylthio)-9H-purin-6-amine], the EC50 was 4120 nM.

As to `CC(C)NCCCn1c(Sc2cc3c(cc2I)OCC3)nc2c(N)ncnc21` [Compound 1A-1, 8-((6-iodo-2,3-dihydrobenzofuran-5-yl)thio)-9-(3-(isopropylamino)propyl)-9H-purin-6-amine], the concentration giving a half-maximal response (EC50) lay within 133 to 346 nM.

With `CC(C)NCCCn1c(Sc2cc3c(cc2-c2cc[nH]c2)OCO3)nc2c(N)ncnc21` [Compound 4H-3, 8-(6-(1H-pyrrol-3-yl)benzo[d][1,3]dioxol-5-ylthio)-9-(3-(isopropylamino)propyl)-9H-purin-6-amine], the half-maximal effective concentration (EC50) stood at 57 nM.

For the compound `CC(C)NCCCn1c(Sc2cc3c(cc2-c2ccc(C=O)cc2)OCO3)nc2c(N)ncnc21` [Compound 4A-8, 4-(6-(6-amino-9-(3-(isopropylamino)propyl)-9H-purin-8-ylthio)benzo[d][1,3]dioxol-5-yl)benzaldehyde], the EC50 is 2330 nM.

`CC(C)NCCCn1c(Cc2cc3c(cc2I)CCO3)nc2c(N)nc(F)nc21` [Compound 1B-4, 2-fluoro-8-((5-iodo-2,3-dihydrobenzofuran-6-yl)methyl)-9-(3-(isopropylamino)propyl)-9H-purin-6-amine]: the EC50 came out at 33.3 nM.

For the compound `CC(C)NCCCn1c(Sc2cc3c(cc2CC#N)OCO3)nc2c(N)ncnc21` [Compound 4E-3, 2-(6-((6-amino-9-(3-(isopropylamino)propyl)-9H-purin-8-yl)thio)benzo[d][1,3]dioxol-5-yl)acetonitrile], the concentration giving a half-maximal response (EC50) is 542 nM.
